Earlier results on one substance are cited in patent US20100041622A1, “Compositions containing aminoalkanes and aminoalkane derivatives” (priority 2008, published 2010).

The conditions of the data set: hydrophilic-lipophilic balance value, known values.

For “Tocopherol polyethylene glycol succinate”, the HLB is 16-18.
